Values quoted from earlier work in patent publication US9937165B2, “Pharmacological chaperones for treating obesity” (Amicus Therapeutics, Inc., priority 2005, dated 2018).

Sequences of proteins named here, by UniProt entry; tags and fusion partners are left off.
UniProt P32245, whole entry: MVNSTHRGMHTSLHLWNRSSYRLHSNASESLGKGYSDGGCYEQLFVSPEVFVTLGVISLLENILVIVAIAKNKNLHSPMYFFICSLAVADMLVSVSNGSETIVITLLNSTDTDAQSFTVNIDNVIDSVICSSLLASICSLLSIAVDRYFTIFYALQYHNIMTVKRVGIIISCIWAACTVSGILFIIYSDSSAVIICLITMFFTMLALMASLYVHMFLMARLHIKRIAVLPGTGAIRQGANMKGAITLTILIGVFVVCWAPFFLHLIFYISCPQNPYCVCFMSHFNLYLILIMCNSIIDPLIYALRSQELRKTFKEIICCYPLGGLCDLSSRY

Target: MC4R (Homo sapiens, UniProt P32245)
Conditions: cited from earlier work

SMILES: O=C(N[C@H](Cc1ccc(Cl)cc1)C(=O)N1CCC(Cn2cncn2)(C2CCCCC2)CC1)[C@H]1Cc2ccccc2CN1 [Compound 1, THIQ]
- MC4R Activity Emax: 97%
